Curated experimental data: vapor pressure values

Vapor pressures (log10 mmHg) refer to near room temperature, 15 to 30 °C; higher is more volatile.
"–" marks a cell with nothing listed here.

compound,name,log vapor pressure (log10 mmHg)
COc1cc(OC)nc(NC(=O)NS(=O)(=O)c2ncccc2C(=O)N(C)C)n1,Nicosulfuron,-6.097
CCCCC(CC)COP(=S)(S)OCC(CC)CCCC (centres undefined),Bis(2-ethylhexyl) dithiophosphate,-3.569
CCCCCCCCCCCCC1=C(OC(C)=O)C(=O)c2ccccc2C1=O,Acequinocyl,-7.896
O=C(C(F)(F)C(F)(F)F)C(F)(C(F)(F)F)C(F)(F)F,Perfluoro-2-methyl-3-pentanone,2.391
COc1ccc([C@H](C)N)cc1,(S)-(-)-1-(4-Methoxyphenyl)ethylamine,-1.751
CCC(C)(C)OOC1(OC)CCCCC1,1-Methoxy-1-[(2-methylbutan-2-yl)peroxy]cyclohexane,-1.824
Clc1cc(Cl)c2c(c1)Oc1cc(Cl)cc(Cl)c1O2,–,-6.385
Oc1c(Br)cc(Br)cc1Br,"2,4,6-Tribromophenol",-3.414
CN(C)C(=S)[S-].[Na+],Sodium dimethyldithiocarbamate,-5.859
Clc1cccc(-c2cc(Cl)c(Cl)c(Cl)c2Cl)c1,"2,3,3',4,5-Pentachlorobiphenyl",-4.425
NC(=O)CCl,Chloroacetamide,-2.577
Cc1ccc(C)c2c(C)cccc12,"1,4,5-Trimethylnaphthalene",-2.295
CNC(=O)Oc1cccc2c1OC(C)(C)C2=O,3-Ketocarbofuran,-4.818
CCOP(=O)(OCC)SCCSCC,Demeton-S,-3.583
Nc1ccc(Cc2ccc(N)cc2)cc1,"4,4'-Diaminobiphenyl methane",-6.759
CN1C2CCC1CC(OC(=O)C(CO)c1ccccc1)C2.CN1C2CCC1CC(OC(=O)C(CO)c1ccccc1)C2.O=S(=O)(O)O (centres undefined),Atropine sulfate anhydrous (2:1) salt,-7.712
Clc1cc(Cl)cc(-c2cc(Cl)cc(Cl)c2)c1,–,-4.644
CC1CC(CC2CCC(N)C(C)C2)CCC1N (centres undefined),Bis(4-amino-3-methylcyclohexyl)methane,-3.222
FC(F)OCC(F)(F)C(F)F,"Difluoromethyl 2,2,3,3-tetrafluoropropyl ether",1.945
CC(C)(C)N=C=O,tert-Butyl isocyanate,1.773
[Na+].[O-]c1nc(Cl)c(Cl)cc1Cl,"Sodium 3,5,6-trichloropyridin-2-olate",-7.745
c1ccc(-c2ncc[nH]2)cc1,"1H-Imidazole, 2-phenyl-",-4.154
Clc1ccc(C2(Cn3cncn3)OCCO2)c(Cl)c1,Azaconazole,-7.187
CCOP(OCC)OCC,Triethyl phosphite,0.487
ClCc1ccccc1Cl,2-Chlorobenzyl chloride,-0.824
CN1COCN=C1N[N+](=O)[O-],"N-(3-Methyl-3,6-dihydro-2H-1,3,5-oxadiazin-4-yl)nitramide",-6.736
O=NN1CCCCC1,N-Nitrosopiperidine,-1.036
CCC(C)(C)c1ccc(O)c(C(C)(C)CC)c1,"2,4-Di-tert-pentylphenol",-1.426
CN(C)C1CSSSC1,"N,N-Dimethyl-1,2,3-trithian-5-amine",-5.388
Clc1cccc(-c2c(Cl)ccc(Cl)c2Cl)c1,–,-3.936
O=S(=O)(Oc1ccc(Cl)cc1)c1ccc(Cl)cc1,Chlorfenson,-5.726
O=C1CCO1,beta-Propiolactone,0.531
CC(Cl)C(=O)O (centres undefined),2-Chloropropanoic acid,0.057
CCS(=O)(=O)c1nc2ccccn2c1S(=O)(=O)NC(=O)Nc1nc(OC)cc(OC)n1,Sulfosulfuron,-9.18
CC(=O)Cc1c(Cl)cc(Cl)cc1Cl,"1-(2,4,6-Trichlorophenyl)-2-propanone",-3.264
COc1nc(C)nc(NC(=O)NS(=O)(=O)c2ccccc2CCC(F)(F)F)n1,Prosulfuron,-7.58
Nc1ccc(Cc2ccc(N)c(Cl)c2)cc1Cl,"4,4'-Methylenebis(2-chloroaniline)",-4.958

Excerpt, the final 6 entries:

{"smiles": "O=C1CCO1", "name": "beta-Propiolactone", "log vapor pressure (log10 mmHg)": "0.531"}
{"smiles": "CC(Cl)C(=O)O", "stereo": "centres undefined", "name": "2-Chloropropanoic acid", "log vapor pressure (log10 mmHg)": "0.057"}
{"smiles": "CCS(=O)(=O)c1nc2ccccn2c1S(=O)(=O)NC(=O)Nc1nc(OC)cc(OC)n1", "name": "Sulfosulfuron", "log vapor pressure (log10 mmHg)": "-9.18"}
{"smiles": "CC(=O)Cc1c(Cl)cc(Cl)cc1Cl", "name": "1-(2,4,6-Trichlorophenyl)-2-propanone", "log vapor pressure (log10 mmHg)": "-3.264"}
{"smiles": "COc1nc(C)nc(NC(=O)NS(=O)(=O)c2ccccc2CCC(F)(F)F)n1", "name": "Prosulfuron", "log vapor pressure (log10 mmHg)": "-7.58"}
{"smiles": "Nc1ccc(Cc2ccc(N)c(Cl)c2)cc1Cl", "name": "4,4'-Methylenebis(2-chloroaniline)", "log vapor pressure (log10 mmHg)": "-4.958"}

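OPERA's authors assembled the values from existing databases and did not measure them anew. A listed value is a point estimate from one report or more. Conditions of the individual experiments are not part of the data. Where a salt, mixture or single isomer is drawn, the source does not say that exactly this form was tested. Some entries may be limits or estimates that an upstream database listed as plain numbers.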

Source: data files of OPERA 2.9 (Mansouri et al.), github.com/kmansouri/OPERA.